{"sequences": {"note": "Amino acid sequences for entries named in this document (tags omitted).", "UniProt P18089, whole entry": "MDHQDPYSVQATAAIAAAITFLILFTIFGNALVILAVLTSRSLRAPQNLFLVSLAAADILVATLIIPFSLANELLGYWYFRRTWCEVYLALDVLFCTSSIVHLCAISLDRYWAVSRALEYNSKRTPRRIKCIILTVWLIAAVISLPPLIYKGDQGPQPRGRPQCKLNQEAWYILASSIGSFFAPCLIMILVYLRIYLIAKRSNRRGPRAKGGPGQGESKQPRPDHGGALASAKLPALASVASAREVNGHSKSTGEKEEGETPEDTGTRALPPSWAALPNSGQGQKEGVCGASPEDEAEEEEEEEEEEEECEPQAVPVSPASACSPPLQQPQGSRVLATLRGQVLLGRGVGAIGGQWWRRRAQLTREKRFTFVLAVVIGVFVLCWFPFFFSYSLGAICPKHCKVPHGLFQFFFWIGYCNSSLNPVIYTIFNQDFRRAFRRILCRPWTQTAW"}, "source": "patent US11065232B2", "about": "“Dihydrotetrabenazine for the treatment of anxiety and psychoses” (ADEPTIO PHARMACEUTICALS LIMITED, priority 2017, dated 2021)", "molecular_target": "alpha 2B (h) (antagonist radioligand) (Homo sapiens, UniProt P18089)", "assay": "Receptor protein binding studies, alpha 2B", "excerpt": "The four 3,11b trans-dihydrotetrabenazine isomers (+)-α, (−)-α, (+)-β and (−)-β were subjected to specific binding assays to test their ability to bind to the receptors and transporter proteins described below. The results are set out in Table 1"}
{"substance": "(−)-α-dihydrotetrabenazine [(−)-Alpha]", "values": [{"measurement": "% Inhibition of specific binding", "setting": "CONC 1.0E−05 (unit not given)", "result": 8, "unit": "%"}, {"measurement": "% Inhibition of specific binding", "setting": "CONC 1.0E−06 (unit not given)", "result": "−22", "unit": "%"}]}
{"substance": "(+)-α-dihydrotetrabenazine [(+)-Alpha]", "values": [{"measurement": "% Inhibition of specific binding", "setting": "CONC 1.0E−05 (unit not given)", "result": "−11", "unit": "%"}, {"measurement": "% Inhibition of specific binding", "setting": "CONC 1.0E−06 (unit not given)", "result": "−17", "unit": "%"}]}
{"substance": "(+)-β-dihydrotetrabenazine [(+)-Beta]", "values": [{"measurement": "% Inhibition of specific binding", "setting": "CONC 1.0E−05 (unit not given)", "result": "−1", "unit": "%"}, {"measurement": "% Inhibition of specific binding", "setting": "CONC 1.0E−06 (unit not given)", "result": "−19", "unit": "%"}]}
